{"source": "patent US7736909B2", "about": "“Methods and compositions comprising capture agents” (Board of Regents, the University of Texas System, priority 2003, dated 2010)", "molecular_target": "MBP-Mdm2 (UniProt P0AEX9+Q00987)", "assay": "isothermal titration calorimetry (ITC)", "assay_type": "binding, human", "conditions": "read-out: KD of chalcone/MBP-Mdm2 complex under inventors' conditions; inferred; not determinable by ITC", "data": [{"molecule": "O=C(O)COc1ccc(/C=C/C(=O)c2ccc(Cl)cc2)cc1", "values": [{"measurement": "Kd", "result": "≥ 220", "unit": "µM"}]}]}
